Measurements: patent US6403626B1, “Benzimidazole derivatives” (Synaptic Pharmaceutical Corporation, priority 1994, dated 2002)

The chains behind the UniProt entries cited, without tags or fusion partners.
UniProt P18825, whole entry, looked up: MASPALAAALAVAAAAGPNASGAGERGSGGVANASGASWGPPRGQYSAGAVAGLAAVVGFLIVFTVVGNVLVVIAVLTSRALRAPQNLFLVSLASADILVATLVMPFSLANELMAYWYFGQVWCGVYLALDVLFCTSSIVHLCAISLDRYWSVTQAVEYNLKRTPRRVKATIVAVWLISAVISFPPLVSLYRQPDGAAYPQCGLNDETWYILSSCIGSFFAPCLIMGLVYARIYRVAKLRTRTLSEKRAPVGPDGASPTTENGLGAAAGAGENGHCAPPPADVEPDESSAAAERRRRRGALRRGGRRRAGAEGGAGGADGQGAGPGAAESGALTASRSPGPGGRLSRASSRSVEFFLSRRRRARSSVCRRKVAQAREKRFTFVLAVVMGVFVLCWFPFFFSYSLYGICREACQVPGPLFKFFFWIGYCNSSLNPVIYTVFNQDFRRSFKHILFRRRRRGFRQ

biological target: α2C Human Adrenergic Receptor (Homo sapiens, UniProt P18825); type: cell-based; details: inhibition of forskolin-stimulated cAMP; NA: Not Active

SMILES	pEC50 Alpha-2 C
Ic1cc(NC2=NCCN2)cc2[nH]cnc12	7.69
CC(C)(C)c1nc2ccc(NC3=NCCN3)c(Br)c2[nH]1	7.92
Cc1cc2nc[nH]c2cc1NC1=NCCN1	7.65
CCc1nc2ccc(NC3=NCCN3)c(Br)c2[nH]1	7.09
FC(F)(F)c1nc2ccc(NC3=NCCN3)c(Br)c2[nH]1	7.19
Cc1cc(NC2=NCCN2)cc2[nH]cnc12	8.26

system: patient undergoing aortocoronary bypass surgery; details: premedication with 5 μg k−1 oral, patients; cited from earlier work

SMILES	reduction of fentanyl requirements for induction and intubation
Clc1cccc(Cl)c1N=C1NCCN1 [Clonidine, reference compound]	45%
